Our source for the pA2 values is patent US20090163571A1, “PHARMACEUTICAL FOR USE IN THE TREATMENT OF URETEROLITHIASIS” (KISSEI PHARMACEUTICAL CO., LTD, priority 2005, published 2009).

The term pA2 denotes the negative logarithm of the molar antagonist concentration that doubles the agonist concentration needed for the same response. Low values mean a weaker antagonist, high ones a more potent antagonist.

The test concerns isolated hamster ureter. The test can be described thus: Inhibition of phenylephrine-induced contraction of isolated hamster ureter (organ bath). The following applies: against phenylephrine concentration-response curve.

Structures are written as SMILES. Bounds are passed on as bounds.

On to `CN(CCCl)Cc1cc(Cl)c(NC2=NCCN2)c(Cl)c1`, for which the pA2 is recorded as <5.
